Assay results from PubChem BioAssay AID445 (National Center for Advancing Translational Sciences (NCATS), 2006).
The other results are listed elsewhere or left out. Records with an inconclusive call do not appear. Calls of active or inactive are those of the source. The call rests on the fitted dose curve; in most records, active means well fitted curve in the direction sought with a large enough effect in the signal ratio (not every such curve was filed as active); inconclusive means small, poorly fitted or top-dose-only effect, or a change in a side signal; inactive means flat fitted curve, though single readings scatter; the % refers to the signal ratio.

Assay: IkB Signaling;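 further: 0% = basal untreated cells and 100% = reference inhibitor full response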
Settings: ABC-DLBCL IkBa-CBG/CBR dual luciferase ratio (green luciferase fused to IkBa over red control in OCI-Ly3 lymphoma cells), 4 h, scaled: untreated 0%, proteasome inhibitor 100%; at 57.1 µM (top of the series) unless noted
Description: NIH Molecular Libraries Screening Centers Network [MLSCN]
NIH Chemical Genomics Center [NCGC]
Nuclear factor kappa-B (NF-kappa-B) plays an important role in normal B cell development and survival. Diffuse large B cell lymphoma (DLBCL) is the most commonly observed type of non-Hodgkin's lymphoma. Gene expression analysis has identified an activated B cell-like subtype of DLBCL (ABC-DLBCL) which expresses known NF-kappa-B target genes. […] However, targets upstream of IKK have been largely unexplored and so nodes upstream of IKK in the NF-kappa-B pathway remain untested due to the lack of chemical probes.
A cell-sensor assay for I-kappa-B-alpha stabilization was developed with NIH investigator Dr. R. Eric Davis in Dr. Louis M. Staudt's laboratory. The assay uses green (CBG68) and red (CBR) emitting beetle luciferases [Chroma-Glo(TM) developed by Promega Corp.] where the green luciferase is fused to I-kappa-B-alpha and the red luciferase is present in its native state. Both luciferase genes are stably present in the OCI-Ly3 human ABC DLBCL cell line, but their expression is under the control of tetracycline-inducible promoters. Following the addition of doxycycline to induce expression of the luciferases, the green luminescence in control cultures rises only slowly because the CBG fusion partner I-kappa-B-alpha is targeted by IKK activity for rapid degradation. In contrast, green luminescence rises rapidly in the presence of proteasome inhibitors or IKK inhibitors. The rise in red luminescence of CBR is not affected by proteasome or IKK inhibitors, and serves as normalization for cell number and nonspecific effects. Compounds were screened as a concentration-titration series that ranged from 57 uM to 0.7 nM.
NCGC Assay Protocol Summary:
Cells were seeded in 1536-well plates at 5000 cells/3ul in IMDM medium containing 0.5% FBS, w/o phenol red, L-glutamine, 25 mM HEPES, 3 mg/ml sodium bicarbonate. After centrifugation for 1 min. at 1000 rpm, 23 nl of compounds or DMSO were delivered to each well using a pin tool. Then 1ul 80ng/ml doxycycline was dispensed into white solid 1536-well plates and the plates were incubated at 37C/5% C02 in a cell incubator for 4 hrs. Then 4 ul Chroma-Glo luminescent substrate mix (Promega) was added to each well. The plate was incubated at R.T. for 10-15 min. The plates were measured on a ViewLux plate reader for green luminescence (540/20 nm filter) and red luminescence (618/8 nm filter). The green and red luminescent signals were corrected for red and green luminescence filter overlap using previously determined filter calibration constants (determined using the procedure outlined in the Promega Technical Manual). The %Activity was determined from the ratio of corrected green/red luminescent values. Green luminescent and ratio %Activity was determined by normalizing to the difference in signal between basal cells (0% Activity) and cells incubated with 10 uM of the proteasome inhibitor MG-132 (100% Activity). Red luminescent %Activity was normalized to the difference between red luminesence in basal cells (0%Activity) and zero luminescence (-100% Activity).
Concentration-response curves were fitted to the signals arising from the green luminescence (I-kappa-B-alpha-luciferase fusion; IkB-luc) and the red luminescence (unfused luciferase; luc) as well as the calculated ratio. The concentration-effect curves were then classified based on curve quality (r2), response magnitude and degree of measured activity. Compounds were then categorized based on their concentration-response curves for all three datasets (Ikb-luc, luc and ratio).
Keywords: IKK, I-kappa-B, IkB, IkBa, cytotoxicity, luminescence, MLSMR, MLSCN, NIH Roadmap, qHTS, NCGC

**Q.** With Cc1ccc(NP(C)(=O)Oc2ccccc2)c(C)c1 (centres undefined) as the compound, how does the IkBa stabilization activation read?
**A.** inactive: -2%

**Q.** With COc1ccccc1OP(C)(=O)Nc1ccc(C)cc1 (centres undefined) as the compound, how does the IkBa stabilization activation read?
**A.** inactive: 1.12%

**Q.** With O=[N+]([O-])[O-].[NH4+] as the compound, how does the IkBa stabilization activation read?
**A.** inactive: -0.555%

**Q.** Which IkBa stabilization activation does the source give for CCOP(C)(=S)SCC(=O)NC(C)C(=O)O (centres undefined) here?
**A.** inactive: -0.576%

**Q.** Which IkBa stabilization activation does the source give for CP(=O)(NC(=O)Nc1ccccc1)Oc1ccccc1 (centres undefined) here?
**A.** inactive: 3.61%

**Q.** For CP(=S)(Nn1cnnc1)Oc1ccccc1 (centres undefined), which IkBa stabilization activation is on record?
**A.** inactive: -1.29%

**Q.** With N1=C(c2nnc(-c3nn[nH]n3)nn2)NNN1 as the compound, how does the IkBa stabilization activation read?
**A.** inactive: -0.807% [at 11.4 µM]

**Q.** For Cc1nc2ccc3ccccc3c2s1.O=[N+]([O-])c1cc([N+](=O)[O-])c(O)c([N+](=O)[O-])c1, which IkBa stabilization activation is on record?
**A.** inactive: -0.887%

**Q.** Which IkBa stabilization activation does the source give for Cc1ccc(C)c(NP(C)(=O)Oc2ccccc2)c1 (centres undefined) here?
**A.** inactive: 1.16%

**Q.** For Cc1ccc([N+](=O)[O-])cc1[N+](=O)[O-], which IkBa stabilization activation is on record?
**A.** inactive: 0.733%

**Q.** With O=[N+]([O-])c1cccc([N+](=O)[O-])c1 as the compound, how does the IkBa stabilization activation read?
**A.** inactive: 0.0875%

**Q.** For Cc1cccc([N+](=O)[O-])c1[N+](=O)[O-], which IkBa stabilization activation is on record?
**A.** inactive: 7.12%

**Q.** Which IkBa stabilization activation does the source give for CCC(C)(OO)OOC(C)(CC)OO (centres undefined) here?
**A.** inactive: -1.55%

**Q.** For CP(=O)(Nc1ccccc1F)Oc1ccccc1 (centres undefined), which IkBa stabilization activation is on record?
**A.** inactive: 0.573%

**Q.** For CP(=O)(Nc1ccc2c(c1)OCCO2)Oc1ccccc1 (centres undefined), which IkBa stabilization activation is on record?
**A.** inactive: 2.16%

**Q.** Which IkBa stabilization activation does the source give for NNC(NN)NN.n1nc(-c2nn[nH]n2)n[nH]1 here?
**A.** inactive: 1.95% [at 11.4 µM]

**Q.** Which IkBa stabilization activation does the source give for [NH4+].[O-][Cl+3]([O-])([O-])[O-] here?
**A.** inactive: 1.19%

**Q.** For Cc1ccccc1NP(C)(=O)Nc1ccccc1C, which IkBa stabilization activation is on record?
**A.** inactive: -1.62%

**Q.** Which IkBa stabilization activation does the source give for CCOP(=O)(CC)OCC here?
**A.** inactive: -0.985%

**Q.** For CCOP(C)(=S)SCC(=O)NC(C)(CC)C(=O)O (centres undefined), which IkBa stabilization activation is on record?
**A.** inactive: -0.883%

**Q.** With Cc1ccc([N+](=O)[O-])c([N+](=O)[O-])c1 as the compound, how does the IkBa stabilization activation read?
**A.** inactive: 7.38%

**Q.** With Cc1c([N+](=O)[O-])cccc1[N+](=O)[O-] as the compound, how does the IkBa stabilization activation read?
**A.** inactive: 2.38%

**Q.** With CN(C)CCOC(=O)C(O)(c1ccccc1)C1CCCCC1 (centres undefined) as the compound, how does the IkBa stabilization activation read?
**A.** inactive: 0.313%

**Q.** Which IkBa stabilization activation does the source give for C/C1=C2N=C(/C=C3N=C(/C(C)=C4\[N-][C@@](C)([C@H]5N=C1[C@@](C)(CCC(=O)NC[C@H](C)OP(=O)([O-])O[C@@H]1[C@H](O)[C@H](n6cnc7cc(C)c(C)cc76)O[C@@H]1CO)[C@@H]5CC(N)=O)[C@](C)(CC(N)=O)[C@H]4CCC(N)=O)[C@@](C)(CC(N)=O)[C@@H]\3CCC(N)=O)C(C)(C)[C@@H]/2CCC(N)=O.[C-]#N.[Co+3] here?
**A.** inactive: 0.509% [at 25.6 µM]

**Q.** Which IkBa stabilization activation does the source give for N#[O+].[C-]#N.[C-]#N.[C-]#N.[C-]#N.[C-]#N.[Fe+2].[Na+].[Na+] here?
**A.** inactive: 4.89%

**Q.** With CP(=O)(Oc1ccccc1)N1CCOC1=O (centres undefined) as the compound, how does the IkBa stabilization activation read?
**A.** inactive: -1.09%

**Q.** With COc1ccccc1OP(C)(=O)Nc1c(C)n(C)n(-c2ccccc2)c1=O (centres undefined) as the compound, how does the IkBa stabilization activation read?
**A.** inactive: 1.49%

**Q.** For CP(=O)(Nc1ccccn1)Oc1ccccc1 (centres undefined), which IkBa stabilization activation is on record?
**A.** inactive: -1.1%

**Q.** With COc1ccccc1OP(C)(=O)Nc1ccc(C)c(C)c1 (centres undefined) as the compound, how does the IkBa stabilization activation read?
**A.** inactive: 0.248%
